Measured values from patent EP1852441B1, “Agents that modulate EPH receptor activity” (The Burnham Institute, priority 2002, dated 2004).

By UniProt entry, the sequences of proteins in these tests, tags left out. Residues count along the entry.
UniProt P54764, 20-547 limits assumed, species assumed: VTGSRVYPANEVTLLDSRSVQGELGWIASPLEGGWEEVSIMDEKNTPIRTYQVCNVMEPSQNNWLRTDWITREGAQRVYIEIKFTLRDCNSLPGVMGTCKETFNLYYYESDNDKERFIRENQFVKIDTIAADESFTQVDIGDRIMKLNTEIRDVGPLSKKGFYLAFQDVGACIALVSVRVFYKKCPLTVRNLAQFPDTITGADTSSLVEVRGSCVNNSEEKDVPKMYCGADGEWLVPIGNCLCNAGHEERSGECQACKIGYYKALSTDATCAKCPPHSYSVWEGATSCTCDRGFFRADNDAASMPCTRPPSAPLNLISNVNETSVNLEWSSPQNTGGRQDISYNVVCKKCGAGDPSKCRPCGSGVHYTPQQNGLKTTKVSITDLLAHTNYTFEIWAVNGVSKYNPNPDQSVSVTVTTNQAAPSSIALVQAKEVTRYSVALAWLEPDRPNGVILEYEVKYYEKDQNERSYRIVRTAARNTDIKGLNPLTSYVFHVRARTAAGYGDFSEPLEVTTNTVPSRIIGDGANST

Assays:
EphA receptors = assay: immobilized biotinylated synthetic peptide captures Eph receptor Fc fusion proteins, EphA panel; assay type: binding; details: biotinylated peptide on streptavidin-coated wells
Protocol: In this example, immobilized SWL and YSA peptides were used to capture Fc fusion proteins of various EphA receptors. Biotinylated peptides were captured on streptavidin-coated microtiter plates (Pierce, Rockford, IL) and incubated with Eph receptor Fc fusion protein. Bound Eph receptors were detected with anti-human Fc antibody conjugated to alkaline phosphatase (AP) (Promega, Madison, WI). Alternatively, the immobilized biotinylated peptides were incubated with diluted cell culture supernatants containing EphA2-AP. Substrates were 2,2'-azino-bis(3-ethylbenzthiazoline-6-sulfonic acid) for horseradish peroxidase and p-nitrophenyl phosphate for AP. Absorbance at 405 or 450 nm was measured using an ELISA plate reader.

EphA4 = target: T1, EphA4 (Homo sapiens, UniProt P54764); assay: inhibition of ephrin-AP fusion protein binding to immobilized Eph receptor Fc; details: EphA2-binding peptides; ephrin-A5-AP and ephrin-A6-AP
T1 construct: immobilized EphA4 receptor extracellular domain fused to n human Fc region

binding of immobilized synthetic peptide to other EphA receptors (EphA receptors) | inhibition of binding of A-ephrins to immobilized EphA4 (EphA4) | Compound
bind promiscuously to all EphA receptors |  | A5 peptide: synthetic peptide corresponding to the A-A' β-strand of ephrin-A5 (KAVADRYAVYW)
 | not EphA4 | CC(C)C[C@H](NC(=O)[C@H](Cc1c[nH]c2ccccc12)NC(=O)[C@@H](N)CO)C(=O)N[C@@H](C)C(=O)N[C@@H](Cc1ccc(O)cc1)C(=O)N1CCC[C@H]1C(=O)NCC(=O)N[C@@H](C)C(=O)N[C@H](C(=O)N[C@@H](CO)C(=O)N[C@@H](Cc1ccc(O)cc1)C(=O)N[C@@H](CCCNC(=N)N)C(=O)NCC(=O)N[C@@H](CO)C(=O)NCC(=O)N[C@@H](CO)C(=O)N[C@@H](CCCCNC(=O)CCCC[C@@H]1SC[C@@H]2NC(=O)N[C@@H]21)C(=O)O)C(C)C [SWL peptide]
bind promiscuously to all EphA receptors |  | A3 peptide: Twelve-mer synthetic peptide corresponding to the G-H loop of ephrin A3 (YSAFSLGYEFHA)
